# Reference: article PMC10853541
# By UniProt entry, the sequences of proteins in these tests, tags left out. Residues count along the entry.
# UniProt P48061, 22-93: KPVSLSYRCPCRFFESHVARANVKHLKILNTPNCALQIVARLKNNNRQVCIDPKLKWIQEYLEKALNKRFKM
# Columns and labels:
# [1] = target: N-terminal-6His-tagged CXCL12 (HMGBiotech) (UniProt P48061); experiment: MST; as a8 but with 150 mM NaCl
# [2] = target: N-terminal-6His-tagged CXCL12 (HMGBiotech) (UniProt P48061); experiment: MST; frHMGB1 or frHMGB1-TL titrated (16 points) into 50 nM 6His-tagged CXCL12 labelled with RED-tris-NTA; 24 °C, 20 mM NaH2PO4/Na2HPO4 pH 7.3, 0.05% TWEEN, 20 mM NaCl; one binding site
substance,measurement,setting,value
tail-less fully reduced HMGB1 (frHMGB1-TL) (domain or fragment),Kd,[1],81.4 µM
same,Kd,[2],12.5 µM
